From US7977369B2, “Medical compositions for intravesical treatment of bladder cancer” (Spectrum Pharmaceuticals, Inc., priority 2001, dated 2011)

Tests used:
Assay in all cases: Chemosensitivity, one hour drug exposure, MTT assay, monolayer
Type in all cases: cell-based, human
RT112 = tested on: RT112
Excerpt: (§1) Cell culture and chemosensitivity studies. […] H460 (human NSCLC) cell line was obtained from the American Type Culture Collection (ATCC). HT-29 (human colon carcinoma), RT112/83 (human bladder carcinoma epithelial), EJ138 (human bladder carcinoma) and T24/83 (human bladder transitional cell carcinoma) cell lines were obtained from the European Collection of Animal Cell Cultures (ECACC). A2780 (human ovarian carcinoma) and BE (human colon carcinoma) cells were gifts from Dr T Ward (Paterson Institute, Manchester, UK). All cell lines were maintained as monolayer cultures in RPNII 1640 culture medium supplemented with fetal calf serum (10%), sodium pyruvate (2 mM), L-glutamine (2 mM), penicillin/streptomycin (50 IU/ml/50 jug/ml) and buffered with HEPES (25 mK). All cell culture materials were purchased from Gibco BRL (Paisley, UK). […] Calibration curves were conducted over a broad range of pH values in culture medium (pH 3.5 to 11) and the stability of the pH conditions monitored over a one hour incubation period at 37° C.

A2780 = tested on: A2780
Excerpt: as §1

EJ138 = tested on: EJ138
Excerpt: as §1

BE = tested on: BE
Excerpt: as §1

T24/83 = tested on: T24/83
Excerpt: as §1

H460 = tested on: H460
Excerpt: as §1

HT-29 = tested on: HT-29
Excerpt: as §1

CO[C@@]12[C@H](COC(N)=O)C3=C(C(=O)C(C)=C(N)C3=O)N1C[C@@H]1N[C@@H]12 [MMC, Mitomycin C, reference compound]
SR (selectivity ratio) = IC50 at pH 7.4/IC50 at pH 6.0 (RT112): 1.67 | SR (selectivity ratio) = IC50 at pH 7.4/IC50 at pH 6.0 (A2780): 1.71 | SR (selectivity ratio) = IC50 at pH 7.4/IC50 at pH 6.0 (EJ138): 1.14 | SR (selectivity ratio) = IC50 at pH 7.4/IC50 at pH 6.0 (BE): 1.59 | SR (selectivity ratio) = IC50 at pH 7.4/IC50 at pH 6.0 (T24/83): 1.02 | SR (selectivity ratio) = IC50 at pH 7.4/IC50 at pH 6.0 (H460): 4.50 | SR (selectivity ratio) = IC50 at pH 7.4/IC50 at pH 6.0 (HT-29): 2.10
